In the library only some 2.1% were active in any assay of this set; here they are far more common.
Wnt bcat act: activates Wnt/beta-catenin signaling in a reporter cell assay | AID 743398 | activation, % at 9.35 µM | activator, plate reader | actives 1.2% (n = 300,000); in the data active means activation above about 30%, passing the limit was not always enough; inconclusive means no clear call, values can overlap the other calls;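 further: 0% = neutral control wells and 100% = positive control wells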
MITF act: increases MITF-driven TRPM1 promoter luciferase signal. SK-MEL-5 TRPM1-promoter luciferase, 24 h; % of positive control, neutral wells = 0. activation, % at 12.5 µM. actives 0.75% (n = 300,000). AID 588334;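 active means mean activation of at least 80% with every replicate also reaching 80%; inconclusive means mean reaches 80% but some replicate falls short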;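 further: 0% = neutral control wells and 100% = parthenolide positive control wells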
UUG fidelity: yeast start codon fidelity modulation | S. cerevisiae UUG-firefly luciferase reporter, luminescence/redox ratio | activity score, % at 18.7 µM | 0.13% of 350,000 active | AID 602363;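 active means replicate mean at a twofold rise or more, about +100% in these data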;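 further: firefly luciferase made from a UUG start codon reports start codon fidelity; reporter light over untreated wells divided by growth signal over untreated wells; some hits fall short of that in this replicate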
MITF TRPM1 inh: reduces MITF-dependent TRPM1 promoter luciferase signal; AID 488899; inhibition, % at 12.5 µM; actives 0.83% (n = 330,000); SK-MEL-5 TRPM1 promoter luciferase, 24 h;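 active means mean inhibition across replicates of 60% or more, whatever share of single replicates reaches that level; inconclusive means some that reach 60%, reason not given; inactive means mean inhibition across replicates below 60%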
PGC1a acetyl inh: lowers PGC1a acetylation signal in U2OS cells | AlphaScreen anti-acetyl-lysine; with virally co-expressed GCN5 acetyltransferase | inhibition, % at 15.6 µM | actives 0.17% (n = 350,000) | AID 651687;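 active means every replicate shows inhibition of at least 40%; inconclusive means mean inhibition at least 40% but some replicate below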;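 further: 0% = neutral control wells and 100% = positive control wells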
miR122 inh: inhibitors of miR-122 in Huh7 cells; activation (reporter increase), % at 12.5 µM; Huh7 miR-122 Renilla luciferase sensor, 48 h; neutral wells = 0, positive control = 100; actives 0.3% (n = 340,000);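 active means mean replicate activation score at least 90 and every replicate individually at or above 90; inconclusive means only one of the two criteria met; inactive means neither criterion met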;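 further: higher luciferase means less miR-122 activity so hits act as miR-122 inhibitors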
* hit, by the source's call; ? = inconclusive; nt = not tested or not shown; [ ] = dose if it differs, or a comment.

SMILES	Wnt bcat act	MITF act	UUG fidelity	MITF TRPM1 inh	PGC1a acetyl inh	miR122 inh
C(=N\Nc1nc2ccccc2s1)/c1cccs1	nt	36	-3	-38	8	10
COc1cccc(/C=N/n2c(N)nc3ccccc32)c1OC	27	90*	-21	-82	10	nt
Cc1nn(-c2ccccc2Cl)c(Cl)c1/C=N/Nc1nc2ccccc2s1	-17	-98	nt	98*	nt	nt
Cc1ccsc1/C=N/Nc1nc2ccccc2s1	61*	39	nt	-38	nt	nt
COc1ccc(/C=N/n2c(N)nc3ccccc32)cc1OC	nt	43	-17	-44	-3	6
CC(=O)Nc1ccc(/C=N/Nc2nc3ccccc3s2)cc1	57*	53	-24	-41	-4	26
CN1[C@@H]2Cn3c(ccc(-c4ccncc4)c3=O)[C@H]1[C@@H](C(=O)NC1CCCCC1)[C@@H]2CO	nt	nt	nt	nt	-7	-3[16.7 µM]
COc1ccccc1CNC(=O)C[C@@H]1C[C@H]2c3cc(NS(C)(=O)=O)ccc3O[C@H]2[C@H](CO)O1	nt	nt	-5	nt	10	0[16.7 µM]
O=C(C1CC1)N1[C@H](CO)[C@@H]2c3ccccc3N(S(=O)(=O)c3ccccc3)C[C@@H]21	nt	nt	30	nt	8	0[16.7 µM]
Cc1noc(C)c1NC(=O)Nc1ccc2c(c1)C(=O)N([C@H](C)CO)C[C@H](C)[C@H](CN(C)S(=O)(=O)c1cn(C)cn1)O2	nt	nt	-12	nt	19	-2[16.7 µM]
CC(=O)c1sc(N/N=C\c2cccc(Br)c2)nc1C	1	24	nt	-30	nt	3
COc1cccc(C=NNc2nc3ccccc3s2)c1OC	51*	43	-17	-40	10	-8
CC(=O)c1sc(N/N=C\c2ccc(Br)cc2)nc1C	14	119*	nt	-116	nt	nt
Oc1ccccc1C=NNc1nc2ccccc2s1	4	-4	-18	-1	-5	8
CC(=NNc1nc2ccccc2s1)c1ncccn1	75*	-33	nt	35	nt	nt
C/C(=N\Nc1nc2ccccc2s1)c1cccs1	?	-12	-50	16	-8	-12
C[C@H](CO)N1C[C@H](C)[C@@H](CN(C)Cc2ccc(C(=O)O)cc2)Oc2ccc(NC(=O)CCN3CCOCC3)cc2CC1=O	nt	nt	0	nt	10	6[16.7 µM]
COC(=O)[C@H](CCSC)NC(=O)c1cccnc1SC	36*	nt	nt	2	nt	nt
C[C@H]1CN([C@@H](C)CO)C(=O)c2cccc(NC(=O)C3CCCCC3)c2O[C@@H]1CN(C)S(=O)(=O)c1ccc(F)cc1	nt	nt	10	nt	6	11[16.7 µM]
O=[N+]([O-])c1cccc(-c2cn3ccccc3n2)c1	67*	46	1	-47	-8	-2
O=C(Nc1ncc(Cc2cccc(Cl)c2Cl)s1)C1CCCO1 (stereo unspecified)	44*	133*	-17	-128	4	0
O=C(Nc1ncc(Cc2cccc(Cl)c2)s1)C1CCCO1 (stereo unspecified)	nt	97*	-4	-99	-21	-2
O=C(NCC[C@H]1CC[C@H](NC(=O)c2cnccn2)[C@H](CO)O1)c1ccc2c(c1)OCO2	nt	nt	7	nt	-1	nt
CCN1CCC(O)(/C=C/c2ccc(C(C)C)cc2)C(C(=O)/C=C/c2ccc(C(C)C)cc2)C1 (stereo unspecified)	-25	-64	nt	67*	nt	nt
Cc1ccc(NC(=S)N2CCC(c3ccccc3)C2)c(Cl)c1 (stereo unspecified)	42*	61	nt	-57	3	nt
Fc1cc(F)cc(NC(=S)N2CCC(c3ccccc3)C2)c1 (stereo unspecified)	15	30	-28	-31	-2	13
Fc1ccccc1NC(=S)N1CCC(c2ccccc2)C1 (stereo unspecified)	48*	109*	-15	-101	-11	4
S=C(Nc1ccccc1Cl)N1CCC(c2ccccc2)C1 (stereo unspecified)	16	39	nt	-41	4	nt
C[C@H](CO)N1C[C@H](C)[C@@H](CN(C)C(=O)C2CCCCC2)Oc2ncc(-c3cccnc3)cc2C1=O	nt	nt	-10	nt	3	2[16.7 µM]
C[C@@H]1CN([C@@H](C)CO)C(=O)c2cc(NC(=O)NC3CCCCC3)ccc2O[C@@H](C)CCCCO[C@@H]1CN(C)C(=O)Cc1ccccc1	nt	nt	9	nt	-3	-2[16.7 µM]
O=C(C[C@@H]1CC[C@@H](NS(=O)(=O)c2ccc(F)cc2)[C@@H](CO)O1)N1CCc2ccccc2C1	nt	nt	-2	nt	-6	nt
CCOCC(=O)N1CCN(Cc2ccc3c(c2)OCO3)CC1	31*	0	-16	-4	16	16
CN(C)CCNc1nc2sc3c(c2c(=O)n1CCc1ccccc1)CCCCC3	-3	nt	-5	90*	nt	-32
Cc1ccccc1Nc1nnc(SCC2CCCCO2)s1 (stereo unspecified)	50*	13	-40	-7	2	-6
COc1ccccc1Nc1nnc(SCC2CCCCO2)s1 (stereo unspecified)	4	-2	nt	-6	nt	nt
CCN1CC(=O)N2[C@H](CO)[C@@H](c3ccc(-c4ccccc4F)cc3)[C@H]2C1	nt	nt	nt	nt	3	nt
C[C@H]1CN([C@@H](C)CO)C(=O)c2cccc(NC(=O)C3CCOCC3)c2O[C@@H]1CN(C)Cc1ccc(C(=O)O)cc1	nt	nt	-11	nt	16	-3[16.7 µM]
O=c1[nH]c(CSc2ccccn2)nc2ccccc12	31*	59	nt	-50	nt	nt
CC(C)NC(=O)N(C)C[C@H]1Oc2ccc(NC(=O)C3CCCCC3)cc2CC(=O)N([C@H](C)CO)C[C@@H]1C	nt	nt	6	nt	nt	7[16.7 µM]
COCC(=O)Nc1ccc2c(c1)OC[C@H](C)N(C(=O)Cc1ccccn1)C[C@@H](C)[C@H](OC)CN(C)C2=O	nt	nt	-7	nt	-6	-8[16.7 µM]
O=C(C[C@@H]1C[C@@H]2c3cc(NC(=O)CC4CC4)ccc3O[C@@H]2[C@H](CO)O1)NCC(F)(F)F	nt	nt	-14	nt	5	0[16.7 µM]
COCCn1c(/C=C/c2ccccc2)nc2ccccc21	13	97*	1	-98	-3	nt
COc1ccccc1Cn1c(/C=C/c2ccccc2)nc2ccccc21	38*	39	nt	-36	nt	nt
COc1ccc(/C=C/c2nc3ccccc3n2Cc2ccccc2OC)cc1	-14	18	nt	-18	nt	nt
CCC(=O)Nc1ccc2c(c1)C(=O)N(C)C[C@H](OC)[C@H](C)CN(CC1CC1)[C@@H](C)CO2	nt	nt	-12	nt	7	nt
CCN1CCN(c2cc3c(nn2)Oc2ccccc2N3C)CC1	nt	82*	nt	-75	nt	nt
Cc1noc(C)c1NC(=O)Nc1ccc2c(c1)C(=O)N([C@H](C)CO)C[C@@H](C)[C@H](CN(C)S(=O)(=O)c1ccc(F)cc1)OCCCC[C@H](C)O2	nt	nt	12	nt	-3	10[16.7 µM]
CNC(=O)c1ccc(-c2cc(C(F)(F)F)nn2C)s1	35*	nt	1	nt	5	-7
Cn1nc(C(F)(F)F)cc1-c1ccc(/C=C(\C#N)C(=O)c2ccccc2)s1	16	nt	-29	-32	nt	-4
CCOC(=O)c1cc2cc3ccccc3cc2[nH]1	40*	nt	-11	-17	-12	3

Two records picked at random from those above:
SMILES	Wnt bcat act	MITF act	UUG fidelity	MITF TRPM1 inh	PGC1a acetyl inh	miR122 inh
Cc1noc(C)c1NC(=O)Nc1ccc2c(c1)C(=O)N([C@H](C)CO)C[C@@H](C)[C@H](CN(C)S(=O)(=O)c1ccc(F)cc1)OCCCC[C@H](C)O2	nt	nt	12	nt	-3	10[16.7 µM]
COc1ccc(/C=N/n2c(N)nc3ccccc32)cc1OC	nt	43	-17	-44	-3	6

MITF TRPM1 inh, hit marks shown above.
SMILES	Wnt bcat act	MITF act	UUG fidelity	MITF TRPM1 inh	PGC1a acetyl inh	miR122 inh
Cc1nn(-c2ccccc2Cl)c(Cl)c1/C=N/Nc1nc2ccccc2s1	-17	-98	nt	98*	nt	nt
CCN1CCC(O)(/C=C/c2ccc(C(C)C)cc2)C(C(=O)/C=C/c2ccc(C(C)C)cc2)C1 (stereo unspecified)	-25	-64	nt	67*	nt	nt
CN(C)CCNc1nc2sc3c(c2c(=O)n1CCc1ccccc1)CCCCC3	-3	nt	-5	90*	nt	-32

Screening results from PubChem.
